# Most compounds without a hit are left out; they make up all but 13% or so of the library.
# ALDH1A1 inh: blocks purified human ALDH1A1 activity; P00352; Purified ALDH1A1, NADH fluorescence, propionaldehyde substrate; Potency, µM (doses to about 75.3 µM), for inactives: at the top dose activity, negative = inhibition, actives largely listed as inhibitors; 220,000 compounds, 7.3% hits; active = well fitted inhibition curve with a large enough effect, not every such curve was filed as active; inconclusive = small, poorly fitted or top-dose-only effect, or another doubt; inactive = no such curve, though single readings can be large or run the other way;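 also: potency is read from the fitted curve at half-maximal effect; plate controls were no enzyme wells and a reference inhibitor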
# KDM4E inh: JMJD2E (human) inhibition; AID 2147; 230,000 compounds, 1.6% hits; Potency, µM (series often up to 57.1 µM), inactives show top-dose activity change, negative = inhibition, most hits filed as inhibitors; B2RXH2; JMJD2E catalytic domain, FDH-coupled NADH fluorescence (FDH is formaldehyde dehydrogenase);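 also: potency is read from the fitted curve at half-maximal effect; 0% = wells with enzyme and -100% = buffer wells without enzyme; nearly all actives have a fitted effect of over 50% in size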
# Lamin A splicing: LMNA splicing modulation; Potency, µM (top dose mostly 46.1 µM), without a hit: top-dose ratio change, negative = inhibition, actives largely listed as inhibitors; HeLa LMNA splicing GFP/RFP minigene ratio, 48 h; AID 1487; 200,000 compounds, 0.01% hits; active = well fitted inhibition curve with a large enough effect in the signal ratio, with a control signal flat, not every such curve was filed as active; inconclusive = small, poorly fitted or top-dose-only effect, or effect the other way, or a change in a side signal; the % refers to the signal ratio; also: potency is read from the fitted curve at half-maximal effect; % is scaled to controls: 0 for no effect and ±100 for the full control effect
#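 S3 HeLa cells stably expressing lamin A-EGFP splicing minigene plus DsRed2, 600 cells/well, 48 h compound exposure at 37C. Laser-scanning cytometry; analysed as GFP (500-530 nm)/RFP (575-640 nm) total intensity ratio; 0.5% DMSO vehicle.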
# G9a block: inhibitors of human histone lysine methyltransferase G9a. Q96KQ7. G9a H3K9 monomethylation, AlphaScreen, 2 h. Potency, µM (series often up to 102 µM), for inactives: top-dose activity, negative = inhibition, most hits filed as inhibitors. 350,000 compounds, 8.8% hits; also: potency is read from the fitted curve at half-maximal effect; % is scaled to controls: 0 for no effect and ±100 for the full control effect; nearly all actives have a fitted effect of over 75% in size
#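 AlphaScreen detection with an anti-monomethyl H3K9 antibody quantified product after a 2 h room-temperature reaction containing 500 nM biotinylated H3K9 peptide, 20 µM SAM and 20 nM enzyme, which had been preincubated 15 min with compound.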
# miR-21 FLuc: miR-21 reporter, rising signal | HeLa miR-21 FLuc reporter, luciferase, 48 h | Potency, µM (top dose mostly 38.3 µM), inactives show at the top dose reporter change, positive = more light | 340,000 tested, under 10 active | AID 2288; active = well fitted rising curve with a large enough effect; inconclusive = small, poorly fitted or top-dose-only effect; inactive = no such curve, though single readings can be large or run the other way;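 further: % of control where 0% means no effect; miR-21 action dims this reporter so a rising signal means less miR-21 action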
#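 HeLa cells stably expressing CMV-driven firefly luciferase with a downstream miR-21 binding sequence, endogenously expressing miR-21, were treated with titrations (up to about 40uM final) for 48 hours at 37 degree Celsius. Luciferase luminescence was read after lysis.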
# Sfp PPTase inh: blocks B. subtilis Sfp PPTase activity | Q9F4F7 | hit rate 3.5% among 310,000 | Potency, µM, without a hit: max response, negative = inhibition, most hits filed as inhibitors | AID 1490 | Biochemical Sfp PPTase activity, qHTS; active means well fitted inhibition curve with a large enough effect; inconclusive means small, poorly fitted or top-dose-only effect, or another doubt; inactive means no such curve, though single readings can be large or run the other way;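 further: the enzyme is Sfp with the accession as filed and its product quenches rhodamine fluorescence; potency means the concentration at half of the fitted maximal effect; 0% = enzyme reaction without inhibitor and -100% = no enzyme wells; top concentration of the series not given in the record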
#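 Fluorescence-quenching assay: 15 nM Sfp-PPTase preincubated 15 min at room temperature with compound, then 5 uM rhodamine-CoA and 12.5 uM BHQ-2-labelled YbbR peptide added. Fluorescence (ex 525/em 598 nm) read at start and after 30 min; difference gives rate.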
# Active calls of the source: *; u = inconclusive; x = no result; ! = repeats disagree; [ ] = another dose, or the depositor's remark. Unless noted, calls follow the shape of the dose curve; as a rule, active = well fitted curve in the direction sought with a large enough effect; inconclusive = small, poorly fitted or top-dose-only effect, or another doubt; inactive = no such curve, though single readings can be large; an effect the other way counts as inactive or inconclusive.
# Start of the data: the first 5 entries, to show the layout:
SMILES	KDM4E inh	miR-21 FLuc	Sfp PPTase inh	Lamin A splicing	G9a block	ALDH1A1 inh
CCCCOc1ccc(CC2C(=O)N(C)C(=O)N(C)C2=O)cc1	3%	-12%	u	11%	-44%[59 µM]	13%
CN1C(=O)C(Cc2ccc3c(c2)OCO3)C(=O)N(C)C1=O	1%	-10%	u	3%	u	24µM*
CCOC(=O)c1ccc2c(c1)n(Cc1ccccc1)c(C)[n+]2CC	4%	9%	22%	1%[46 µM]	16%	0%
CCOC(=O)c1ccc2c(c1)n(CCO)c(C)[n+]2CC	-3%	-2%	0%	13%	35µM*	8%
NNS(=O)(=O)c1ccc(Sc2ccccn2)c([N+](=O)[O-])c1	-8%	-11%	-28%	19%[46 µM]	40µM*	u

# Main list, from the start:
SMILES	KDM4E inh	miR-21 FLuc	Sfp PPTase inh	Lamin A splicing	G9a block	ALDH1A1 inh
CCCCOc1ccc(CC2C(=O)N(C)C(=O)N(C)C2=O)cc1	3%	-12%	u	11%	-44%[59 µM]	13%
CN1C(=O)C(Cc2ccc3c(c2)OCO3)C(=O)N(C)C1=O	1%	-10%	u	3%	u	24µM*
CCOC(=O)c1ccc2c(c1)n(Cc1ccccc1)c(C)[n+]2CC	4%	9%	22%	1%[46 µM]	16%	0%
CCOC(=O)c1ccc2c(c1)n(CCO)c(C)[n+]2CC	-3%	-2%	0%	13%	35µM*	8%
NNS(=O)(=O)c1ccc(Sc2ccccn2)c([N+](=O)[O-])c1	-8%	-11%	-28%	19%[46 µM]	40µM*	u
ClCC(Cl)CCl	x	x	x	x	x	14%
Cc1cc(-c2nc3ncccc3o2)ccc1NC(=O)c1ccccc1Br	x	-32%	x	x	-1%[59 µM]	x
O=c1[nH]c(=O)n(C2CCCCC2)c(O)c1C1NCCc2ccccc21 (stereo unspecified)	7%	2%	35µM*	9%	u	u
CC(=O)Oc1ccc(Cl)c2cccnc12	18µM*	x	22%	x	-8%[2.33 µM]	6%
CCN1C[C@@]2(OC(=O)c3ccccc3NC(C)=O)CCC(OC)[C@@]34C5CC6C(OC)C[C@@](O)(C(CC23)[C@@H]14)C5(O)C6OC (stereo partly specified)	7%	x	13%	3%	x	-14%
CC(C)(O)[C@@H]1C2OC(=O)[C@@H]1[C@]1(O)C[C@H]3O[C@]34C(=O)O[C@H]2[C@]14C	u	x	13%	x	x	u
Cc1ccc2cc(C=C(C#N)C#N)c(Cl)nc2c1	u	-33%	56µM*	-20%	u	-79%
C[C@H]1O[C@@H](O[C@H]2[C@@H](O)C[C@H](O[C@H]3[C@@H](O)C[C@H](O[C@H]4CC[C@]5(C)C6CC[C@]7(C)[C@@H](C8=CC(=O)OC8)CC[C@]7(O)C6CC[C@@H]5C4)O[C@@H]3C)O[C@@H]2C)C[C@H](O)[C@@H]1O (stereo partly specified)	2%	x	-2%	x	x	3%
O=[N+]([O-])c1ccc(-c2ccccc2)c([As](=O)(O)O)c1	-1%	25%	-16%	x	13µM*	4%
O=[N+]([O-])c1ccc2c(c1)C(c1ccccc1)=NCCN2	x	13%	3%	x	u	x
O=c1c2ccccc2nc(Cc2ccccc2)n1-c1ccc(O)cc1	-2%	-26%	7%	x	1%[12.7 µM]	u
O=c1c2ccccc2nc(CNc2ccccc2)n1-c1ccccc1	-11%	-5%	-4%	x	32µM*	x
NC(=O)[C@@H]1CCCN1C(=O)[C@H](Cc1ccccc1)NC(=O)[C@@H]1CCCN1C(=O)[C@@H](N)Cc1ccc(O)cc1	x	x	6%	x	27%[59 µM]	1%
C[N+]1(C)CCc2cc3c(cc2[C@H]1[C@@H]1OC(=O)c2c1ccc1c2OCO1)OCO3	-17%	-1%	16%	-1%	22µM*!	u
O=C1CC2OCC=C3CN4CCC56c7ccccc7N1C5C2C3CC46 (stereo unspecified)	x	x	-13%	x	x	x
COC(=O)C1=CO[C@@H](C)[C@@H]2CN3CCc4c([nH]c5cc(OC)ccc45)[C@@H]3C[C@H]12	u	x	-3%	x	x	u
COC(=O)[C@H]1[C@H]2C[C@@H]3c4[nH]c5cc(OC)ccc5c4CCN3C[C@H]2C[C@@H](OC(=O)/C=C/c2cc(OC)c(OC)c(OC)c2)[C@@H]1OC	x	x	x	x	8.9µM*	x
Cc1c(C=C2C(=O)N(C)C(=S)N(C)C2=O)c2ccccc2n1CC(=O)NCC1CCCO1 (stereo unspecified)	x	-1%	50µM*	x	14µM*	x
CC(=O)NC(Cc1ccc(N(CCCl)CCCl)cc1)C(=O)NC(C(=O)O)C(C)C (stereo unspecified)	u	-2%	8%	23%[46 µM]	-48%	-14%
NC(Cc1ccc(N(CCCl)CCCl)cc1)C(=O)O (stereo unspecified)	20µM*!	x	-14%	u	11µM*!	32µM*
CCOC(=O)CC(NC(=O)C(Cc1ccc(N(CCCl)CCCl)cc1)NC(C)=O)C(=O)OCC (stereo unspecified)	10µM*	15%	79µM*	u	x	25µM*
CCCCC/C=C\C/C=C\C/C=C\C/C=C\CCCC(=O)Nc1ccc(O)cc1C	x	x	-1%	x	4%[59 µM]	u
CC12CCC3C4CCC(=O)C(O)=C4CCC3C1CCC2OC(=O)CCC1CCCC1 (stereo unspecified)	x	x	17%	x	7%[12.7 µM]	x
CN1CCCC2(CCN(C(=O)Oc3ccccc3)CC2)C1	x	x	5%	x	9%[12.7 µM]	-4%
O=C(O)CNC(=O)c1ccc([As](=O)(O)O)cc1	x	x	x	x	x	4%[13.5 µM]
CN(C)C1C(=O)C(C(N)=O)=C(O)[C@@]2(O)C(=O)C3=C(O)c4c(O)cccc4[C@@](C)(O)C3CC12 (stereo partly specified)	2.5µM*	x	-30%	x	-43%[2.33 µM]	-9%
CN(C)[C@@H]1C(=O)C(C(N)=O)=C(O)[C@]2(O)C(=O)C3=C(O)c4c(O)ccc(Cl)c4[C@](C)(O)[C@H]3C[C@@H]12	-13%[25.5 µM]	x	11%	u	u	2%[20.9 µM]
CN(C)C1C(=O)C(C(N)=O)=C(O)C2(O)C(=O)C3=C(O)c4c(O)cccc4C(C)(O)C3C(O)C12 (stereo unspecified)	x	5%	56µM*	x	x	x
COc1ccc(C[C@@H](N)c2ccc(OC)cc2)cc1	x	x	x	x	x	9%[13.5 µM]
c1ccc(CN2CCC3(CCNCC3)CC2)cc1	x	x	-12%	x	-28%[12.7 µM]	u
c1ccc2c(c1)OCC(C1=NCCN1)O2 (stereo unspecified)	u	-4%	10%	u	28µM*	u
CCCN1CCCC2Cc3nc(N)ncc3CC21 (stereo unspecified)	x	x	19%	x	-7%[59 µM]	12%
CCCCC1C(=O)NC(=S)NC1=O	u	-10%	10µM*	-6%	4.5µM*	32µM*
CN(C)C(CSC(N)=O)CSC(N)=O	x	x	-28%	x	x	x
N#CC1(O)CCCCC1	x	x	x	x	x	28µM*
Nn1cnnc1	x	x	x	x	x	12%
CSCC[C@H](NC(=O)[C@@H](NC(=O)CNC(=O)[C@H](CC(=O)O)NC(=O)[C@H](CCSC)NC(=O)[C@@H](N)Cc1ccc(O)cc1)[C@@H](C)O)C(=O)N[C@@H](CO)C(=O)N[C@@H](CCC(N)=O)C(=O)N[C@H](C(=O)O)C(C)C	x	x	2%	x	x	x
c1cnc(N2CC3(CCNCC3)C2)nc1	x	x	-3%	x	4%[12.7 µM]	u
COc1ccc(C(=O)C2CCCN(C3CSCCSC3)C2)c(C)c1 (stereo unspecified)	-22%	1%	22%	-20%[46 µM]	1%	14µM*

# Bioassay records from PubChem.
